Patent US10106559B2, “Substituted tetrahydrocarbazole and carbazole carboxamide compounds” (BRISTOL-MYERS SQUIBB COMPANY, priority 2013, dated 2018)

Tested on: CD69 expression on B cells in human whole blood
Experiment: Whole Blood Assay of BCR-Stimulated CD69 Expression on B Cells
Type: cell-based
Settings: B-cell

Cc1cc(C(N)=O)c2[nH]c3cc(C(C)(C)O)ccc3c2c1-c1cccc(-n2c(=O)cc3c(Cl)cccn3c2=O)c1C [Example 71]
IC50: 240 nM
